Biological target: human 11β-HSD1 (Homo sapiens, UniProt P28845)
Assay: biochemical
Settings: 1.5 h, read-out: Biological Test Example 2 Average % inhibition at 100 nm

Protein sequences, listed by entry. Tags and fused reporters are not part of them. Lines headed by an entry give the natural chain unless they say otherwise; changes in a name come on top.
UniProt P28845: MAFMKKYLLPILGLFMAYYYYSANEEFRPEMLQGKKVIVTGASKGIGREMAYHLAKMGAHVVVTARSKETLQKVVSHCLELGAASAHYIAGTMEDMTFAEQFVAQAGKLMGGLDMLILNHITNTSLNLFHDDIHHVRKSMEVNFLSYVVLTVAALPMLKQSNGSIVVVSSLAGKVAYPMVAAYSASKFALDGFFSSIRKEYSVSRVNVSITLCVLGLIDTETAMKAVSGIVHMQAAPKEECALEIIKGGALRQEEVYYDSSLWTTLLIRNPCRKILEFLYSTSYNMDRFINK

**Q.** With `CC(C)(C)OC(=O)N(CCO)[C@@H]1CCN(C(=O)O[C@H]2C3CC4CC2C[C@](C(N)=O)(C4)C3)C1` [Example 28, (R)-(1-carbamoyl-4-adamantyl) 3-(tert-butoxycarbonyl(2-hydroxyethyl)amino)pyrrolidine-1-carboxylate] as the compound, how does the inhibition at 0.1 µM read?
**A.** The inhibition at 0.1 µM was 86.1%.

Reference: patent US8828985B2, “Carbamate and urea inhibitors of 11-beta-hydroxysteroid dehydrogenase 1” (Vitae Pharmaceuticals, Inc., priority 2008, dated 2014)
